This passage reports BPR and inhibition results from ChEMBL document CHEMBL2346557, “VBP15: preclinical characterization of a novel anti-inflammatory delta 9,11 steroid” (Bioorg Med Chem, 2013).

Protein sequences, listed by entry. Tags and fused reporters are not part of them.
UniProt P08684, whole entry: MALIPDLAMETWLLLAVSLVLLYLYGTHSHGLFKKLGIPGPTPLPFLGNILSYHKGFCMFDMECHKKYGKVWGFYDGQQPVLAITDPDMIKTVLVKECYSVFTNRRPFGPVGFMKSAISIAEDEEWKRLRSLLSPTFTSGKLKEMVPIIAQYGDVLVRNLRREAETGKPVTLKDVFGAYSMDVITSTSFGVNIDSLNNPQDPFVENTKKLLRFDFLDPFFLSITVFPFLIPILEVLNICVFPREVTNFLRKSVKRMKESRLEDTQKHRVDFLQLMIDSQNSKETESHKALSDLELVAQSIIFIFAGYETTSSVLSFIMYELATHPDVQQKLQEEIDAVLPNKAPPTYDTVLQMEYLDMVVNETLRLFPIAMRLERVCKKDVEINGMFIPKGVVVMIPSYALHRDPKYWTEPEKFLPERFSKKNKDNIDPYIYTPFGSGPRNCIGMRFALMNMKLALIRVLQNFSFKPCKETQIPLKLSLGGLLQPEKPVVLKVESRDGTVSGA

Data set [1] is filed under the species Rattus norvegicus. Put plainly: Ratio of drug level in brain to plasma of rat at 0.25 hrs.
Data set [2] is filed under the species Rattus norvegicus. Description: Ratio of drug level in brain to plasma of rat at 0.5 hrs.
For data set [3], the species on record is Rattus norvegicus. Description: Ratio of drug level in brain to plasma of rat at 4 hrs.
Data set [4] is filed under the species Rattus norvegicus. Description: Ratio of drug level in brain to plasma of rat at 2 hrs.
The next data set has as its target CYP3A4 (Homo sapiens, UniProt P08684). Put plainly: Inhibition of CYP3A4 (unknown origin) at 10 mM relative to control. It counts as ADME.
The species named for data set [5] is Rattus norvegicus. Put plainly: Ratio of drug level in brain to plasma of rat at 6 hrs.
The species entered for data set [6] is Rattus norvegicus. Put plainly: Ratio of drug level in brain to plasma of rat at 1 hr.
The species named for data set [7] is Rattus norvegicus. Description: Ratio of drug level in brain to plasma of rat at 8 hrs.

Take `C[C@@H]1C[C@H]2[C@@H]3CCC4=CC(=O)C=C[C@]4(C)C3=CC[C@]2(C)[C@@]1(O)C(=O)CO` [VAMOROLONE]: the BPR in the data set filed under Rattus norvegicus [1] stood at 0.648; in the data set listed under Rattus norvegicus [2], 0.62; in the data set filed under Rattus norvegicus [3], 0.583; in the data set listed under Rattus norvegicus [4], 0.593; in the data set filed under Rattus norvegicus [5], 0.581; in the data set listed under Rattus norvegicus [6], 0.614. Further, in the data set filed under Rattus norvegicus [7], the BPR worked out at 0.433. In addition, 10000 µM produced 15.3% inhibition on CYP3A4.

Broadly, the inhibition is the relative decrease from the control value, in per cent. High values mean a response far below the control, low ones a response near the control.
